From US20240307362A1 (priority 2019, published 2024)

System: Ba/F3-EGFR-insSVD
Assay: Ba/F3 cell survival assay, EGFR-insSVD
Assay type: cell-based
Details: read-out: BA/F3 (insSVD) IC50; Table 5, compounds of WO 2016/120196
Protocol: 293T cells from ATCC were transfected with pBABEpuro expression constructs for WT EGFR or EGFR-insSVD and pCL-Eco packaging vector using Fugene-6 transfection reagent from Promega. Plates were incubated at 37° C. for 48 h. Retrovirus was harvested by filtering the media supernatant through a 0.45 μm filter.
Ba/F3 cells purchased from DSMZ were grown in RPMI+10% FBS+10 ng/mL IL-3 and infected with filtered retroviral supernatant at a 1:2 dilution. Polybrene was added to a concentration of 8 μg/mL, plates were spun for 90 min, and incubated overnight at 37° C. 2 μg/mL puromycin was added to the infected cells 24 h after infection and cells were continually grown in the presence of puromycin and 10 ng/mL IL-3. Following stably expressing Ba/F3 cell lines were generated: Ba/F3-EGFR-WT, Ba/F3-EGFR-insSVD, (Ba/F3-vector-control).
For cell survival assays, Ba/F3 cells were grown to a density of 1-2 million cells per mL, spun down and resuspended in media without IL-3, and replated at a concentration 200,000-500,000 cells per mL. The cells ectopically expressing WT EGFR or EGFR-insSVD were plated with 10 ng/mL Millipore Culture grade EGF. The cells ectopically expressing pBABEpuro empty vector were plated with 10 ng/mL IL-3.
2 days later, cells were plated in 50 μL in a 384 well plate at a concentration of 4000 cells per well for cells assayed in the absence of IL-3 and 2000 cells per well for cells assayed in the presence of IL-3. 100 nL of compound was added to each well using a 100 nL pin head, and plates were incubated at 37° C. for 48 h.
Cell viability was measured by adding 20 μL of Cell Titer-Glo Luminescent Cell Viability Reagent diluted 1:3 in PBS. Plates were sealed with Perkin Elmer Top-Seal, inverted several times to mix, and immediately centrifuged at 1000 rpm for 2 min. Plates were incubated in low light conditions for 8-10 min and luminescence was measured.

Row | Compound | IC50 [nM]
1 | COCCOc1cnccc1-c1[nH]c2c(c1Nc1ccc(F)c(F)c1)C(=O)NCC2 | > 2000
2 | O=C1NCCc2[nH]c(-c3ccncc3OCC(F)F)c(Nc3cccc(F)c3)c21 | > 2000
3 | O=C1NCCc2[nH]c(-c3ccncc3OCC3CC3)c(Nc3ccc(F)cc3)c21 | > 2000
